Measured values: PubChem BioAssay AID775 (SRMLSC, 2007)
This is a selection; strong and weak results do not stand in their true shares. The source made the active and inactive calls.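 The calls were made as follows: active = inhibition above a set limit, placed 3 SD over the median of all compounds (cut at about 26% in these data); inactive = the rest.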

Assay: rescue of nicotinamide-shortened yeast lifespan – S. cerevisiae, OD615, primary screen (AID 775);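 also: 0% = nicotinamide-treated wells and 100% = cells grown without nicotinamide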
Conditions: S. cerevisiae growth with nicotinamide, at 10 µM, active compounds read high, deaD strain in restrictive glucose medium
With Cc1nc2ccc3ccccc3c2o1.O=[N+]([O-])c1cc([N+](=O)[O-])c(O)c([N+](=O)[O-])c1 the inhibition of the nicotinamide effect was inactive: -15.9%.
With COc1ccccc1OP(C)(=O)Nc1ccc(C)c(C)c1 (stereo not drawn) the inhibition of the nicotinamide effect was inactive: -3.81%.
In the case of COc1ccc(OP(C)(=O)Nc2ccccc2Br)cc1 (stereo not drawn), the inhibition of the nicotinamide effect is reported as inactive: -0.31%.
With Cc1c(NP(C)(=O)Oc2ccc(C(C)C)cc2)c(=O)n(-c2ccccc2)n1C (stereo not drawn) the inhibition of the nicotinamide effect was inactive: -6.33%.
With COc1ccccc1OP(C)(=O)Nc1ccc(C)cc1C (stereo not drawn) the inhibition of the nicotinamide effect was inactive: -17.3%.
For CP(=O)(Nc1ccccn1)Oc1ccccc1 (stereo not drawn), the inhibition of the nicotinamide effect was inactive: -7.09%.
With CCc1ccc(OP(C)(=O)O)cc1 the inhibition of the nicotinamide effect was inactive: -15.7%.
In the case of COc1ccc(OP(C)(=O)Nc2ccccn2)cc1 (stereo not drawn), the inhibition of the nicotinamide effect is reported as inactive: -13.9%.
With CN(C)CCOC(=O)C(O)(c1ccccc1)C1CCCC1 (stereo not drawn) the inhibition of the nicotinamide effect was inactive: -7.04%.
With CC(C)(C)c1ccc(OP(C)(=O)O)cc1 the inhibition of the nicotinamide effect was inactive: -6.49%.
In the case of CP(=O)(Nc1ccc(Cl)cc1)Oc1ccc(F)cc1 (stereo not drawn), the inhibition of the nicotinamide effect is reported as inactive: -1.23%.
For COc1ccc(OP(C)(=O)Nc2ccc(Br)cc2)cc1 (stereo not drawn), the inhibition of the nicotinamide effect was inactive: 2.26%.
With CCN(CC)CC(O)COC(=O)C(O)(c1ccccc1)C1CCCCC1 (stereo not drawn) the inhibition of the nicotinamide effect was inactive: -7.99%.
With CP(=O)(Oc1ccccc1)N1CCOC1=O (stereo not drawn) the inhibition of the nicotinamide effect was inactive: -3.45%.
For CCOC(=O)c1ccc(NP(C)(=O)Oc2ccc(Cl)cc2)cc1 (stereo not drawn), the inhibition of the nicotinamide effect was inactive: -2.99%.
In the case of CP(=O)(OC12CC3CC(CC(C3)C1)C2)OC12CC3CC(CC(C3)C1)C2, the inhibition of the nicotinamide effect is reported as inactive: 0.59%.
With COc1ccc(OP(C)(=O)Nc2cccc(Br)c2)cc1 (stereo not drawn) the inhibition of the nicotinamide effect was inactive: 2.77%.
In the case of CN(C)CCOC(=O)C(O)(c1ccccc1)C1CCCCC1 (stereo not drawn), the inhibition of the nicotinamide effect is reported as inactive: -13.8%.
With CP(=O)(Nc1ccc2c(c1)OCCO2)Oc1ccccc1 (stereo not drawn) the inhibition of the nicotinamide effect was inactive: -10.3%.
In the case of Cc1ccccc1NP(C)(=O)Nc1ccccc1C, the inhibition of the nicotinamide effect is reported as inactive: -13%.
With CCOP(C)(=S)SCC(=O)NC(C)(CC)C(=O)O (stereo not drawn) the inhibition of the nicotinamide effect was inactive: -14.6%.
For O=C(OCCN1CCN(CCOCc2ccccc2)CC1)C(O)(c1ccccc1)c1ccccc1, the inhibition of the nicotinamide effect was inactive: 4.87%.
For CP(=O)(Nc1ccccc1F)Oc1ccccc1 (stereo not drawn), the inhibition of the nicotinamide effect was inactive: -4.49%.
In the case of CC(C)c1ccc(OP(C)(=O)Nc2ccc(SC(F)(F)F)cc2)cc1 (stereo not drawn), the inhibition of the nicotinamide effect is reported as inactive: 9.52%.
For CP(=O)(Nc1ccccc1)Oc1ccc(F)cc1 (stereo not drawn), the inhibition of the nicotinamide effect was inactive: -12.3%.
In the case of CCOC(=O)c1ccc(NP(C)(=O)Oc2ccc(F)cc2)cc1 (stereo not drawn), the inhibition of the nicotinamide effect is reported as inactive: -0.94%.
In the case of CC1=NCCc2c1[nH]c1ccccc21.O=[N+]([O-])c1cc([N+](=O)[O-])c(O)c([N+](=O)[O-])c1, the inhibition of the nicotinamide effect is reported as inactive: -4.58%.
In the case of Cc1ccc(C)c(NP(C)(=O)Oc2ccccc2)c1 (stereo not drawn), the inhibition of the nicotinamide effect is reported as inactive: -4.3%.
In the case of Cc1cc(C)cc(OP(C)(=O)Nc2ccccn2)c1 (stereo not drawn), the inhibition of the nicotinamide effect is reported as inactive: -2.58%.
In the case of CCOC(=O)c1ccc(NP(C)(=O)Oc2cc(C)cc(C)c2)cc1 (stereo not drawn), the inhibition of the nicotinamide effect is reported as inactive: -0.59%.
For Cc1cc(C)cc(OP(C)(=O)Nc2ccc(C)cc2C)c1 (stereo not drawn), the inhibition of the nicotinamide effect was inactive: 0.78%.
With Cc1nc2ccc3ccccc3c2s1.O=[N+]([O-])c1cc([N+](=O)[O-])c(O)c([N+](=O)[O-])c1 the inhibition of the nicotinamide effect was inactive: -16.7%.
In the case of COc1ccccc1OP(C)(=O)Nc1c(C)cccc1C (stereo not drawn), the inhibition of the nicotinamide effect is reported as inactive: -10.2%.
With CN1CCCCC1COC(=O)C1(O)c2ccccc2CCc2ccccc21 (stereo not drawn) the inhibition of the nicotinamide effect was inactive: 1.25%.
In the case of CP(=O)(Nc1ccc(SC(F)(F)F)cc1)Oc1ccccc1 (stereo not drawn), the inhibition of the nicotinamide effect is reported as inactive: 3.45%.
In the case of CP(=S)(Nn1cnnc1)Oc1ccccc1 (stereo not drawn), the inhibition of the nicotinamide effect is reported as inactive: -0.28%.
In the case of CP(=O)(Nc1ccccc1Br)Oc1ccccc1 (stereo not drawn), the inhibition of the nicotinamide effect is reported as inactive: 0.92%.
With CCOC(=O)c1ccc(NP(C)(=O)Oc2ccc(OC)cc2)cc1 (stereo not drawn) the inhibition of the nicotinamide effect was inactive: 5.62%.
For CCOP(C)(=S)SCC(=O)NC(C)C(=O)O (stereo not drawn), the inhibition of the nicotinamide effect was inactive: -4.92%.
In the case of CP(=O)(Nc1ccccn1)Oc1ccc(Cl)cc1 (stereo not drawn), the inhibition of the nicotinamide effect is reported as inactive: 0.26%.
For Cc1cccc(C)c1OP(C)(=O)Nc1ccc(SC(F)(F)F)cc1 (stereo not drawn), the inhibition of the nicotinamide effect was inactive: 4.63%.
For Cc1cc(C)cc(OP(C)(=O)Nc2ccc(SC(F)(F)F)cc2)c1 (stereo not drawn), the inhibition of the nicotinamide effect was inactive: -2.88%.
In the case of CP(=O)(NC(=O)Nc1ccccc1)Oc1ccccc1 (stereo not drawn), the inhibition of the nicotinamide effect is reported as inactive: -9.85%.
In the case of Cc1ccc(NP(C)(=O)Oc2ccccc2)c(C)c1 (stereo not drawn), the inhibition of the nicotinamide effect is reported as inactive: -6.29%.
With COc1ccccc1OP(C)(=O)Nc1ccc(C)cc1 (stereo not drawn) the inhibition of the nicotinamide effect was inactive: -4.12%.
For CCOC(=O)c1ccc(NP(C)(=O)Oc2ccccc2)cc1 (stereo not drawn), the inhibition of the nicotinamide effect was inactive: 3.62%.
In the case of COc1ccc(OP(C)(=O)Nc2cccc(F)c2)cc1 (stereo not drawn), the inhibition of the nicotinamide effect is reported as inactive: -10.8%.
In the case of CC(C)(C)c1ccc(OP(C)(=O)Nc2ccc(SC(F)(F)F)cc2)cc1 (stereo not drawn), the inhibition of the nicotinamide effect is reported as inactive: 1.99%.
